Structures are written as SMILES. Like-named read-outs stand apart in the source and are kept apart here.

By UniProt entry, the sequences of proteins in these tests, tags left out. Residues count along the entry.
UniProt P13612, 34-1032: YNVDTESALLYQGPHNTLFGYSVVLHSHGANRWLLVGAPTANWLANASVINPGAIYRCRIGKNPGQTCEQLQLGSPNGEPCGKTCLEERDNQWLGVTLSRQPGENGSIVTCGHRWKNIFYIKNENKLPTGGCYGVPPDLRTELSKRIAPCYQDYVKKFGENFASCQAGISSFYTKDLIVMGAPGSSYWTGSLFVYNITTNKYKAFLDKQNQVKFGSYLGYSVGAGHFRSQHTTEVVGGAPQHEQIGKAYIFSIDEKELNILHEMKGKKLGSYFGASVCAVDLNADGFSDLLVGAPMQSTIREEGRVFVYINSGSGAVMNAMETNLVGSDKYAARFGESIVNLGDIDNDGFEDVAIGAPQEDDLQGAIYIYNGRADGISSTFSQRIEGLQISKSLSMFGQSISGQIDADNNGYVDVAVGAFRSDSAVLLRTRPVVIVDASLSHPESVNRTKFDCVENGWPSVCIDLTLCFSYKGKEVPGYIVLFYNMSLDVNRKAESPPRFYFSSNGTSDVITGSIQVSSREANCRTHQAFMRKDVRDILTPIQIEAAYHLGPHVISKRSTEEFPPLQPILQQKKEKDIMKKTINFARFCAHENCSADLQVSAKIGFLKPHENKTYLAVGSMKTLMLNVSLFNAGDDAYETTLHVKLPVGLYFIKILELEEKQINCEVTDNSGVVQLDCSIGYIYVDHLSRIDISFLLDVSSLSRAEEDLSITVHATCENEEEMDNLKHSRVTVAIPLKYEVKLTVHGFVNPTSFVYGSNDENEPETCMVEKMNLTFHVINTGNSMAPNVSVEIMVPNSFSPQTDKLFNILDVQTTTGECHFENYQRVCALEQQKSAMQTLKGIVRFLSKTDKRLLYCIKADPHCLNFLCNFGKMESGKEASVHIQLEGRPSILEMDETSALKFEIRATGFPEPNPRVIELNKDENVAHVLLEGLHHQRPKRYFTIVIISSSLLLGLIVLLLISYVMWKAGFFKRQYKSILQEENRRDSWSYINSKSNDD

The target in assay [1] is T1, VLA-4 (α4β1 integrin) binding to immobilized VCAM-1 (Homo sapiens, UniProt P05556+P13612).
T1 construct: followed by 10 μl of Ramos cell-derived VLA-4; endogenous in cells; host or cells: Ramos cells (VLA-4 preparation derived from the cells)
Briefly: VLA-4/VCAM-1 Screening Assay (solid-phase, dual antibody ELISA). As to conditions: Ramos cell-derived VLA-4, recombinant human VCAM-1 coated plates, 2 hr at 37° C. The procedure:
VLA-4 antagonist activity, defined as ability to compete for binding to immobilized VCAM-1 was quantitated using a solid-phase, dual antibody ELISA. VLA-4 (α4β1 integrin) bound to VCAM-1 was detected by a complex of anti-integrin β1 antibody: HRP-conjugated anti-mouse IgG: chromogenic substrate (K-Blue). Initially, this entailed coating 96 well plates (Nunc Maxisorp) with recombinant human VCAM-1 (0.4 μg in 100 μl PBS), sealing each plate and then allowing the plates to stand at 4° C for Å18 hr. […] On the day of assay, all plates were washed twice with VCAM Assay Buffer (200 μl/well of 50 mM Tris-HCl, 100 mM NaCl, 1 mM MnCl2, 0.05% Tween 20; pH 7.4). Test compounds were dissolved in 100% DMSO and then diluted 1:20 in VCAM Assay Buffer supplemented with 1 mg/mL BSA (i.e., final DMSO=5%). […] 100 μl per well of each dilution was added to the VCAM-coated plates, followed by 10 μl of Ramos cell-derived VLA-4. These plates were sequentially mixed on a platform shaker for 1 min, incubated for 2 hr at 37° C. and then washed four times with 200 μl/well VCAM Assay Buffer. 100 μl of mouse anti-human integrin β1 antibody was added to each well (0.6 μg/mL in VCAM Assay Buffer+1 mg/mL BSA) and allowed to incubate for 1 hr at 37° C. At the conclusion of this incubation period, all plates were washed four times with VCAM Assay Buffer (200 μl/well). A corresponding second antibody, HRP-conjugated goat anti-mouse IgG (100 μl per well @1:800 dilution in VCAM Assay Buffer+1 mg/mL BSA), was then added to each well, followed by a 1 hr incubation at room temperature and concluded by three washes (200 μl/well) with VCAM Assay Buffer. Color development was initiated by addition of 100 μl K-Blue per well (15 min incubation, room temp) and terminated by addition of 100 μl Red Stop Buffer per well. […] Results were calculated as % inhibition of total binding (i.e., VLA-4+VCAM-1 in the absence of test compound).
(An ELISA detects its analyte on a solid surface through an enzyme-linked reagent.)

For assay [2], the target named is T2, cell-surface VLA-4 (α4β1 integrin) on Ramos cells binding to immobilized VCAM-1 (Homo sapiens, UniProt P05556+P13612).
T2 construct: Ramos cells bearing cell-surface VLA-4; endogenous in cells; host or cells: Ramos cells (VLA-4); VCAM-1 purified from CHO cell culture media
Briefly: Ramos (VLA-4)/VCAM-1 Cell-Based Screening Assay (cell adhesion). The conditions noted are these: Calcein-AM labeled Ramos cells, VCAM-1 coated plates, 45 min at room temperature. The source says:
Calcein-AM was purchased from Molecular Probes Inc.
VLA-4 (α4β1 integrin) antagonist activity, defined as ability to compete with cell-surface VLA-4 for binding to immobilized VCAM-1, was quantitated using a Ramos-VCAM-1 cell adhesion assay. Ramos cells bearing cell-surface VLA-4, were labeled with a fluorescent dye (Calcein-AM) and allowed to bind VCAM-1 in the presence or absence of test compounds.
Initially, this entailed coating 96 well plates (Nunc Maxisorp) with recombinant human VCAM-1 (100 ng in 100 μl PBS), sealing each plate and allowing the plates to stand at 4° C for Å18 hr. The VCAM-coated plates were subsequently washed twice with 0.05% Tween-20 in PBS, and then blocked for 1hr (room temperature) with 200 μl of Blocking Buffer (1% BSA/0.02% thimerosal) to reduce non-specific binding. Following the incubation with Blocking Buffer, plates were inverted, blotted and the remaining buffer aspirated. Each plate was then washed with 300 μl PBS, inverted and the remaining PBS aspirated.
Test compounds were dissolved in 100% DMSO and then diluted 1:25 in VCAM Cell Adhesion Assay Buffer (4 mM CaCl2, 4 mM MgCl2 in 50 mM TRIS-HCl, pH 7.5) (final DMSO=4%). […] 100 μl/well of each dilution was added to the VCAM-coated plates, followed by 100 μl of Ramos cells (200,000 cells/well in 1% BSA/PBS). […] Plates were inverted to remove non-adherent cells, blotted and 300 μl/well PBS added. Plates were again inverted, blotted and the remaining buffer gently aspirated. 100 μl Lysis Buffer (0.1% SDS in 50 mM TRIS-HCl, pH 8.5) was added to each well and agitated for 2 min on a rotary shaking platform.

[3] abbreviates: IC50 in Ramos Cell Based Assay (nM).

Regarding `COc1ccc(CC2(C(=O)N[C@@H](Cc3ccc(NC(=O)c4c(Cl)cccc4Cl)cc3)C(=O)O)CCCCC2)cc1` [Example 47, 4-[[(2,6-Dichlorophenyl)carbonyl]amino]-N-[[1-(4-methoxyphenylmethyl)cyclohexyl]carbonyl]-L-phenylalanine], the IC50 in assay [1] (read-out: IC50) stood at 2.5 nM.

With `CS(=O)(=O)NCCC1(C(=O)N[C@@H](Cc2ccc(NC(=O)c3c(Cl)cccc3Cl)cc2)C(=O)O)CCCC1` [Example 194, 4-[[(2,6-Dichlorophenyl)carbonyl]amino]-N-[[1-[2-[(methylsulfonyl)amino]ethyl]cyclopentyl]carbonyl]-L-phenylalanine], the half-maximal inhibitory concentration (IC50) was 0.33 nM in assay [1] (read-out: IC50) and 27 nM in assay [2] (setting [3]).

For the compound `CNC(=O)N(C)CCC1(C(=O)N[C@@H](Cc2ccc(NC(=O)c3c(Cl)cccc3Cl)cc2)C(=O)O)CCCC1` [Example 201, 4-[[(2,6-Dichlorophenyl)carbonyl]amino]-N-[[1-[2-[[(methylamino)carbonyl](methyl)amino]ethyl]cyclopentyl]carbonyl]-L-phenylalanine], the half-maximal inhibitory concentration (IC50) was 1.2 nM in assay [1] (read-out: IC50) and 19 nM in assay [2] (setting [3]).

Take `O=C(Nc1ccc(C[C@H](NC(=O)C2(CCNC(=O)C(F)(F)F)CCCC2)C(=O)O)cc1)c1c(Cl)cccc1Cl` [Example 203, 4-[[(2,6-Dichlorophenyl)carbonyl]amino]-N-[[1-[2-[(trifluoroacetyl)amino]ethyl]cyclopentyl]carbonyl]-L-phenylalanine]: the 50% inhibitory concentration (IC50) was 0.64 nM in assay [1] (read-out: IC50) and 47 nM in assay [2] (setting [3]).

In the case of `CC(=O)NCCC1(C(=O)N[C@@H](Cc2ccc(NC(=O)c3c(Cl)cccc3Cl)cc2)C(=O)O)CCCC1` [Example 251], the half-maximal inhibitory concentration (IC50) in assay [1] (IC50 nM) was 0.37 nM; in assay [2] (read-out: IC50 in Ramos Cell Based Assay) it was 9 nM.

In general, IC50 refers to the concentration needed to halve the response being measured.

(Values after patent publication US6455550B1, “N-alkanoylphenylalanine derivatives” (Hoffmann-La Roche Inc., priority 1997, dated 2002).)
